Assay results as given in patent publication US12559474B2, “Triazine derivatives having virus replication inhibitory activity and pharmaceutical composition comprising the same” (priority 2021, dated 2026).

Biological target: SARS-CoV-2 3CL protease (Severe acute respiratory syndrome coronavirus 2, UniProt P0DTD1)
Test: biochemical
Details: 50% SARS-CoV-2 3CL protease inhibitory concentration, given as class symbols

Q: How did the IC50 turn out when Cn1cnc(Cn2c(=O)nc(Nc3cc4cn(C)nc4cc3Cl)n(Cc3cc(F)ccc3F)c2=O)n1 [II-0208] was run?
A: < 100 nM
